d = 2'-deoxy (DNA); m = 2'-O-methyl
What was measured:
TLR7 = TLR7 (Mus musculus, UniProt P58681, Y264H); test: Constitutive TLR7 activation in Tlr7 Y264H primary BMDMs, RT-qPCR (TNFα, Oas3); type: cell-based; settings: 200 nM ASO overnight
Method: FIG. 15: Primary BMDMs from wildtype (WT) and Tlr7 […] mutant mice were pre-treated overnight with 200 nM of indicated ASOs prior to mRNA purification and RT-qPCR analyses. […] In such examples, inhibition of TLR7 activity can be identified by observation of an overall decreased TLR7 response of the cell population, or a lower proportion of cells having TLR7-positive activity as compared to positive control condition in which cells are treated with TLR7 agonist in the absence of the oligonucleotide (or in the presence of an appropriate control inhibitory agent). In one example, 293[…]7 (referred to as HEK-TLR7) cells are transfected with pNF-κB-Luc4 reporter, incubated with an oligonucleotide, and then stimulated with R848. TLR7 activity can be determined by a luciferase assay, which measures activated NF-κB by luminescence. TLR7 activity can also be analysed by measuring cytokine levels, for example by ELISA. […] Alternatively, such cells may express a constitutively active form of TLR7 (e.g., Tlr7^[…]). TLR7 activity may then be assessed by the gene or protein expression of TLR7-responsive genes, such as Tnfα and Oas3. […] NO: 324); […] NO: 327); hIFI44: […] NO: 328); hIFI44: […] NO: 329); Human IFIT2: […] NO: 330); […] NO: 331); Human cGAS: […] NO: 333); Mouse Rsad2: […] NO: 335); […] Mouse […] NO: 339); Mouse […] NO: 341). Mouse OAS3: […] NO: 342); mOAS3-REV […] NO: 343);

Sequences of proteins named here, by UniProt entry; tags and fusion partners are left off. Residues count along the entry.
UniProt P58681, 27-1050 Y264H: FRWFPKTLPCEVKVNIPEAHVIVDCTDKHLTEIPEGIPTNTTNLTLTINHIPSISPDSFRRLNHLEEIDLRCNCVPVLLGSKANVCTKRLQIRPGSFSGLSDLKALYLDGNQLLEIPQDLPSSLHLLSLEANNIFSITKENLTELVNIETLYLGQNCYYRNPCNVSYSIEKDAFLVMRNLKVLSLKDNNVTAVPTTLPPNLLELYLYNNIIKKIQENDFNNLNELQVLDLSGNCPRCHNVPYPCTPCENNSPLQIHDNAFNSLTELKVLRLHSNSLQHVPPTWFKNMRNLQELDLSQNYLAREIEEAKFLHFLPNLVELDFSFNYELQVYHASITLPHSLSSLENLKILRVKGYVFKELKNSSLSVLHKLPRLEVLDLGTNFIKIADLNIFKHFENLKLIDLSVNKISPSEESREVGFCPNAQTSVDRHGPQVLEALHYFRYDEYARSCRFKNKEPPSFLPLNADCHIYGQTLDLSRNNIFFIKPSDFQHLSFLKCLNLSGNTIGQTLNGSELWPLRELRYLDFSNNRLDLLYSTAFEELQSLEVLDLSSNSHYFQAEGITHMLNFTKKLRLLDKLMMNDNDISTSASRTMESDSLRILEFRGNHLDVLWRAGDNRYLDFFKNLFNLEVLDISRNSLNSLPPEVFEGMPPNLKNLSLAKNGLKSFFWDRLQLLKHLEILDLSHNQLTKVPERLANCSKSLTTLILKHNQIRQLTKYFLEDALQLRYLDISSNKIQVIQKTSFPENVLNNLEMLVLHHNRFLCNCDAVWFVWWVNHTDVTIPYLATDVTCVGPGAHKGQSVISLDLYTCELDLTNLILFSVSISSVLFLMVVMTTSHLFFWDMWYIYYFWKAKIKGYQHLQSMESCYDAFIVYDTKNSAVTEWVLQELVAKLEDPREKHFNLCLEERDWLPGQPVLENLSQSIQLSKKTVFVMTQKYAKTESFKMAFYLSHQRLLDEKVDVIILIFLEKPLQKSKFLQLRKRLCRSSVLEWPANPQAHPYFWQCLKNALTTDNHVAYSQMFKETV
UniProt Q8N884, whole entry: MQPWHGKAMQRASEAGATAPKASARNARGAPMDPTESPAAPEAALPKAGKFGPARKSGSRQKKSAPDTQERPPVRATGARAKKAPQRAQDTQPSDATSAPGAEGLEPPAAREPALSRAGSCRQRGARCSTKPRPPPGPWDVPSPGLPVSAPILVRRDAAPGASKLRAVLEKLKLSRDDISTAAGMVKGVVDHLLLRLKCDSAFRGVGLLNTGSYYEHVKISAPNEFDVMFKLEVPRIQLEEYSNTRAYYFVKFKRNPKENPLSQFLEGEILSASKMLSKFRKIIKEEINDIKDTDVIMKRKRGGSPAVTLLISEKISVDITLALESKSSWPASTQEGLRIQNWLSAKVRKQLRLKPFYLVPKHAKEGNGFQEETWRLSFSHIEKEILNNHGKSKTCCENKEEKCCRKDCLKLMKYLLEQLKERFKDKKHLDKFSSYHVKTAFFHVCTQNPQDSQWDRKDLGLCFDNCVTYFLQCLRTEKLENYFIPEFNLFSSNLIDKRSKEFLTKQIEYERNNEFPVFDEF

cGAS = cGAS (Homo sapiens, UniProt Q8N884); test: ISD70-driven IP-10 (and IFN-β) production in THP-1 cells, ELISA; type: cell-based; set-up: endogenous in cells; host or cells: THP-1 (undifferentiated); settings: THP-1 UNC93B1−/− and UNC93B1 WT; 100 or 250 nM ASO 6 h; ISD70 overnight
Method: The ability of an oligonucleotide to inhibit cGAS activity can, for example, be analysed by incubating cells which express cGAS with an oligonucleotide, then stimulating said cells with a cGAS agonist (e.g., 70-bp interferon stimulating DNA or ISD70; 45-bp interferon stimulating DNA or ISD45), and analysing the overall cGAS response in the cell population, or analysing the proportion of cells having cGAS-positive activity after a defined period of time.
In such examples, inhibition of cGAS activity can be identified by observation of an overall decreased cGAS response of the cell population, or a lower proportion of cells having cGAS-positive activity as compared to positive control condition in which cells are treated with cGAS agonist in the absence of the oligonucleotide (or in the presence of an appropriate control inhibitory agent). In one example, THP-1 or HT-29 cells are transfected with ISD70 and incubated with an oligonucleotide. cGAS activity can then be determined by cytokine (e.g., IP-10 and/or IFNβ) expression (e.g., gene and/or protein expression) and/or secretion levels, such as by ELISA. A similar assay can be performed with LL171 cells transfected with ISD45. […] By way of example, cGAS enzymatic activity may be assessed in vitro using recombinant cGAS and then measuring activity thereof by way of a cGAMP ELISA. […]

Substance	constitutive TLR7 activation (TNFα and Oas3 mRNA; in words) (TLR7)	effect on ISD70 sensing in UNC93B1-deficient and matched wild-type cells (in words) (cGAS)
mC*mG*mU*T*T*C*C*C*C*C*C*C*C*C*C*C*C*C*C*C (CGUTTCCCCCCCCCCCCCCC; antisense; sugars from the 5' end m3 d17, all phosphorothioate, methylation of C not given here) [[C2]Mut1-v3-dC]	but not	
mC*mU*mU*mU*mA*G*T*C*G*T*A*G*T*T*G*mC*mU*mU*mC*mC (CUUUAGTCGTAGTTGCUUCC; sugars from the 5' end m5 d10 m5, all phosphorothioate, methylation of C not given here) [ASO11]		not seen
mG*mC*mA*mG*mU*C*T*C*C*A*T*G*T*C*C*mC*mA*mG*mG*mC (GCAGUCTCCATGTCCCAGGC; antisense; sugars from the 5' end m5 d10 m5, all phosphorothioate, methylation of C not given here) [[CDKN2B-AS1]2234]		dose-dependent inhibitory effect
mG*mG*mU*A*T*C*C*C*C*C*C*C*C*C*C*C*C*C*C*C (GGUATCCCCCCCCCCCCCCC; antisense; sugars from the 5' end m3 d17, all phosphorothioate, methylation of C not given here) [[C2]Mut1-dC]	significantly reduced constitutive TLR7 activation	
